This passage reports IC50 results from ChEMBL document CHEMBL6096732 (J Med Chem, 2025).

In this assay the target is T1, Polyamine deacetylase HDAC10 (Homo sapiens, UniProt Q969S8).
T1 sequence (Q969S8 whole entry): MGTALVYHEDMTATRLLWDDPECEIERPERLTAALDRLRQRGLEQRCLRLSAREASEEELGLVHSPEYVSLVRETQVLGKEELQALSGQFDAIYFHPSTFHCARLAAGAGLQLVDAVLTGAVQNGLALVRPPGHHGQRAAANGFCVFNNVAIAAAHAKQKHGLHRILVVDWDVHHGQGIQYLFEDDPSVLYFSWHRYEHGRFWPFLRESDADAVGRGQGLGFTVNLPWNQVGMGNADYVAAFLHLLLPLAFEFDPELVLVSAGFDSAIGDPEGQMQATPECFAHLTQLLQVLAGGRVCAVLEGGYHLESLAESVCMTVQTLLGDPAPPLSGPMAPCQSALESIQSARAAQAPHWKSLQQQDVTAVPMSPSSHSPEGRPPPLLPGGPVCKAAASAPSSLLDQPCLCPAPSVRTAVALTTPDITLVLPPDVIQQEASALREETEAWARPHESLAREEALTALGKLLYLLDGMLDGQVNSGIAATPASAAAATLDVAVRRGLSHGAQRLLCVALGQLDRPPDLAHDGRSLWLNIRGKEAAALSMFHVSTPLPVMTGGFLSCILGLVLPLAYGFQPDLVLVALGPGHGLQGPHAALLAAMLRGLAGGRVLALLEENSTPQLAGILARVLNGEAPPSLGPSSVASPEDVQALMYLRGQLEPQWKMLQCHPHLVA
Kind of assay: Inhibition of recombinant HDAC10 (unknown origin) preincubated for 1 hr followed by substrate addition and measured after 2 hrs by fluorescence based micro plate reader analysis.

pIC50: −log10 of the molar value. Bounds are passed on as bounds.

A word on the pIC50: it is the IC50 on a negative log10 scale, so that one unit is a factor of ten. In the case of `O=C(CCCCCCC(=O)Nc1ccccc1)NO` [VORINOSTAT], the pIC50 was less than 5.00.
